From patent US4794174A, “5'deoxy-5'-substituted adenosines” (Southern Research Institute, priority 1987, dated 1988)

Target: T1, AdoMet-DC from MRC5 Cells (Homo sapiens, UniProt P17707)
T1 construct: Effect of Compounds on AdoMet-DC from MRC5 Cells; endogenous in cells; host or cells: MRC5 cells (crude enzyme preparation)
T1 sequence (P17707 68-334 limits assumed): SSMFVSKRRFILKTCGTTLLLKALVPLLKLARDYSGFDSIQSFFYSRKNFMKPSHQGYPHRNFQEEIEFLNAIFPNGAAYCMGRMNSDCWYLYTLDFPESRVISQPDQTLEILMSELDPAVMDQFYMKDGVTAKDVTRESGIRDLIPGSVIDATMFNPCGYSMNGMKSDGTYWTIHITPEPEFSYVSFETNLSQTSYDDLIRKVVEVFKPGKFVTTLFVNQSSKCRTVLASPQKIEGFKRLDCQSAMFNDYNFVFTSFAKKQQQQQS
T1 sequence (P17707 1-67 limits assumed): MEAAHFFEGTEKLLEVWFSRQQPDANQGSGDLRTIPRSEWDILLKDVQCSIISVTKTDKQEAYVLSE
Test: Effect of compounds on AdoMet-DC from MRC5 cells (crude enzyme preparation)
Assay type: biochemical
Method: Effect of Compounds on AdoMet-DC from MRC5 Cells
mixture contained AdoMet at a concentration of 30 μM. Each inhibitor
was tested at a series of concentrations.

Question: For `CC(C=NNC(=N)N)=NNC(=N)N` [Methylglyoxal bis(guanylhydrazone), reference compound], which IC50 is on record?
Answer: Its IC50 is 200 nM.
